Values of other authors, collected in patent US7447594B2, “Molecular cardiotoxicology modeling” (Ocimum Biosolutions, Inc., priority 2001, dated 2008).

Assays:
[1] = rat, in vivo; cited from earlier work
[2] = single intraperitoneal doses of 1-32 mg/kg; cited from earlier work

CC(N)C(O)c1ccccc1 (stereo not drawn) [phenylpropanolamine]
myocardial contractility and coronary blood flow [1]: myocardial contractile depression without altering global coronary artery blood flow
blood pressure [2]: dose-dependent increased blood pressure
heart pathology following termination [2]: myocardial necrosis
